Binding of CDR-mutated scFvs to a peptide of the spike HR2 region

Data: MIT Lincoln Laboratory AlphaSeq set, Engelhart et al. 2022, doi:10.1038/s41597-022-01779-4, as distributed in FLAb.

Antigen: PDVDLGDISGINAS, a 14-residue peptide of the SARS-CoV-2 spike HR2 region.

Parent scFv Ab-14: VH joined to VL by a 15-residue (Gly4Ser)3 linker. Changes lie in the light chain CDRs alone.
VH: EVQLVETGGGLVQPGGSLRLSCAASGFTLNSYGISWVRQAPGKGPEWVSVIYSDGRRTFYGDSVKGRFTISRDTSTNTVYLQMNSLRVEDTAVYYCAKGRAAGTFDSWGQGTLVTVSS
VL: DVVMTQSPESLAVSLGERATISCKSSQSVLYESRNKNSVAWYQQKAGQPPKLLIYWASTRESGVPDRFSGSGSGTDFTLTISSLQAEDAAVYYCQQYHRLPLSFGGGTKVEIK

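The parent was found by panning a naive human phage display library on the peptide. Variants in AAYL50 differ from the parent at up to three CDR positions; double and triple changes were sampled at random. The assay is AlphaSeq: two haploid yeast populations carry antibody and antigen on their surface. Pairs that bind mate more often; barcode pairs of the diploids are counted by sequencing. Read counts were normalised to the haploid input and turned into Kd by a linear fit to BCL2-family pairs of known affinity, for each replicate. There are three technical replicates.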

The parent's light chain CDRs are KSSQSVLYESRNKNSVA, WASTRES, QQYHRLPLS; each variant's own CDRs replace them letter for letter.
The Kd shown is the geometric mean over detected replicates; a lower Kd is a better binder.
An entry "not detected" has no value in the source: the pair was not observed among the diploids in any replicate. This suggests poor binding but is not conclusive.
Parent in this assay: reference entry 4.4 nM, copy in this library 48 nM.

| CDR-L1 | CDR-L2 | CDR-L3 | Kd (apparent) | seen in |
|---|---|---|---|---|
| KSSQSVLYESRNKNSPA | WALTRES | TQYHRLPLS | not detected | 0 of 3 |
| KSSQSVLYESRNKNSVA | WASGRES | YQYHRLPLC | not detected | 0 of 3 |
| KSSQSVLYESRDKNSVA | WGSTRES | QQYHRLPLS | not detected | 0 of 3 |
| KSSQSVLYEVRNKNPVA | WASTRES | QQYHRLKLS | 870 µM | 1 of 3 |
| KSSQRVLYESRNKNSVA | WASTHES | QQYHRLPLH | not detected | 0 of 3 |
| KASQSVCYESRNKNSVA | WASTRES | QQYHRLPPS | 17 µM | 2 of 3 |
| KSYQSVLYEMRNKNSVA | WAWTRES | QQYHRLPLS | 3.5 µM | 2 of 3 |
| KSSHSSLWESRNKNSVA | WASTRES | QQYHRLPLS | 400 pM | 3 of 3 |
| KSSQSVLYESRNFNSVA | WASTFES | QQYDRLPLS | not detected | 0 of 3 |
| KSSQSNLYESRSKNSVA | WESTRES | QQYHRLPLS | 710 nM | 3 of 3 |
| KSSQSMLYESRNKNSVA | WASTRES | EQYHRLPLG | 150 nM | 2 of 3 |
| KSSYSVLYESRNKNMVA | WASTRES | QQYNRLPLS | 1.7 µM | 2 of 3 |
| KSSQSVLKESLNKNSVA | WASTRES | QQYHRLPLH | 9.0 nM | 3 of 3 |
| KSSQSVLYNSRNKNHVA | WNSTRES | QQYHRLPLS | 17 µM | 2 of 3 |
| KSSQSVLYESRSKNSVA | WASTRED | QQYHRLPPS | 3.4 µM | 1 of 3 |
| KDSQSVLYESRNKNSVA | PASTRES | QQYHRLPLL | not detected | 0 of 3 |
| KSSQWVLYESRNNNSVA | WASTRES | QQYHRLPAS | 110 nM | 3 of 3 |
| KSSQSVLYESRNKKSVA | WASTRES | SQYARLPLS | 290 nM | 3 of 3 |
| KSSQSVLKESRNKNSVA | WASTMEQ | QQYHRLPLS | 750 nM | 3 of 3 |
| KSSQSVLYESRNKNVVA | WLSTRES | QQVHRLPLS | 2.8 µM | 1 of 3 |
| KSSQKVLYESRNTNSVA | WASTRES | QQYHRYPLS | 1.4 µM | 3 of 3 |
| KSSQSVLYESRGKNSVA | WASTRES | QQYHRLPHS | 5.4 µM | 1 of 3 |
| KYSQSVLYESVNKNSVA | WASTRES | QQYHRLMLS | 14 µM | 1 of 3 |
| KLSQSVLYESRNKNSVG | WASTRQS | QQYHRLPLS | 15 nM | 2 of 3 |
| KSSQPVLYESRNKNSVA | WASCRNS | QQYHRLPLS | 15 nM | 3 of 3 |
| KSSQEVLYESRNKNSVA | WASTHES | QQSHRLPLS | not detected | 0 of 3 |
| KSSQSVLYESRNKNIVA | WASTRES | QQYHVRPLS | not detected | 0 of 3 |
| KSSQSVLYESRNKNSDA | CASTREE | QQYHRLPLS | 8.4 µM | 2 of 3 |
| KSSQSVLYESTNKDSVA | LASTRES | QQYHRLPLS | 6.7 nM | 3 of 3 |
| KSSQSVLYESINKNRVA | WASTRES | EQYHRLPLS | 27 nM | 3 of 3 |
| KSSQSNLYESRNKNSVA | WASTRES | CQYHKLPLS | 550 nM | 3 of 3 |
| KSSTSVLYWSRNKNNVA | WASTRES | QQYHRLPLS | 13 nM | 3 of 3 |
| KSSQSVLYESRNKRSVA | WASTKEV | QQYHRLPLS | 210 nM | 3 of 3 |
| KSSQSVLYESRCKNLVA | WASTRES | QQIHRLPLS | not detected | 0 of 3 |
| KSSQSVLYESRAVNSVA | WASTRES | QQYHRLPKS | 26 µM | 3 of 3 |
| KSSESVLYESRNKMSVA | WASTRES | QQEHRLPLS | not detected | 0 of 3 |
| KSSQSVLYESRNKESVA | WASYRES | QQYHRQPLS | not detected | 0 of 3 |
| KSFQSVLYESRIKNSVA | WASTRES | QQEHRLPLS | 1.6 µM | 1 of 3 |
| KSVQSVLYESRNKNSVA | WASTRES | QQYFSLPLS | 6.5 nM | 3 of 3 |
| KSSQSVLYESRNKNCVA | WASTRES | HQYHRLYLS | not detected | 0 of 3 |
| KSSQSVRYESRPKNSVA | WASTRES | QNYHRLPLS | 83 µM | 2 of 3 |
| KSSQSVLYYSRNKNSVA | DAITRES | QQYHRLPLS | 1.9 nM | 3 of 3 |
| TSSQSRLYESRNKNSVA | WARTRES | QQYHRLPLS | 3.8 µM | 1 of 3 |
| KSSQSVLYESRFKNSVA | WASTREQ | QQYHRLPLS | 11 nM | 3 of 3 |
| KSSQSVLYESRNKLSVA | WASTREG | QQYHRLPLS | not detected | 0 of 3 |
| KSSQMMLYESRAKNSVA | WASTRES | QQYHRLPLS | 11 nM | 3 of 3 |
| KSSQSNLYESRNKNEVA | WASTRES | QQYHRLWLS | not detected | 0 of 3 |
| KSSQSVLYESRNKNSAE | WASTRCS | QQYHRLPLS | 1.2 µM | 1 of 3 |
| KSSQSVLYESANKNSVA | WDSTKES | QQYHRLPLS | 23 nM | 3 of 3 |
| KSSQSVLYESRNKNSVA | WAAHIES | QQYHRLPLS | not detected | 0 of 3 |
| KSSQSVLYESRNKNSVA | WASTRET | QQYHRAPVS | not detected | 0 of 3 |
| KSSQSVLYESRNKNSVA | WAVTRES | QQYHRWPGS | not detected | 0 of 3 |
| KSSQSVLYESENKNSVA | WASTRAK | QQYHRLPLS | 6.7 nM | 3 of 3 |
| KSSQSVLYESRNKNSGA | WASTRES | QQYHRLPLD | 42 µM | 1 of 3 |
| KSSQSVPYESRNKASVA | WASTRES | QNYHRLPLS | not detected | 0 of 3 |
| KSSQSVLYESRNKNSFA | WAVTRES | QQYHRLPLF | not detected | 0 of 3 |
| KSSQSVAYESRNKNSWA | WASTRES | QQPHRLPLS | 24 µM | 2 of 3 |
| KSSQSVLYESRNKNSVA | WASTRES | QQYHILPMG | not detected | 0 of 3 |
| KASQSVLYENRNKNSVA | WASTRES | QSYHRLPLS | 4.4 nM | 3 of 3 |
| KRSQSVLYESRNKNSVA | WNSTRES | QQYHRVPLS | 110 µM | 1 of 3 |
| KSSQSVLYESEEKNSVA | WASTRES | GQYHRLPLS | not detected | 0 of 3 |
| KSSQSVLYESRNKNSVA | WASTRGS | QQPHRLPLQ | not detected | 0 of 3 |

The closing 4 entries, repeated:

| CDR-L1 | CDR-L2 | CDR-L3 | Kd (apparent) | seen in |
|---|---|---|---|---|
| KASQSVLYENRNKNSVA | WASTRES | QSYHRLPLS | 4.4 nM | 3 of 3 |
| KRSQSVLYESRNKNSVA | WNSTRES | QQYHRVPLS | 110 µM | 1 of 3 |
| KSSQSVLYESEEKNSVA | WASTRES | GQYHRLPLS | not detected | 0 of 3 |
| KSSQSVLYESRNKNSVA | WASTRGS | QQPHRLPLQ | not detected | 0 of 3 |

Three control strains display no target. For library AAYL50, 18% of the pairings with them gave a signal, with a median of 15 µM and one signal in twenty below 970 nM, so weak values seen in few replicates may be background.